Reference: patent US20250154200A1, “CYCLIC PEPTIDE FOR CANCER IMMUNOTHERAPY” (Kansas State University Research Foundation, priority 2021, published 2025)

Amino acid sequences for entries named in this document (tags omitted). Residues count along the entry.
UniProt P09793, 36-223: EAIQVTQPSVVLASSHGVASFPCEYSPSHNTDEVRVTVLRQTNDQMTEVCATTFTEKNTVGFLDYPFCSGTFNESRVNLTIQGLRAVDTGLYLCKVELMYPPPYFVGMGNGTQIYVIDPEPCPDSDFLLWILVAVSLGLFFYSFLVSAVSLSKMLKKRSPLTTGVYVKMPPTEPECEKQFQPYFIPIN

Target: CTLA4 on antigen-primed mouse CD8+ T cells (mouse) (UniProt P09793)
Assay: cell-based or functional assay

Substance: cyclic peptide R10, cyc([…])
- LLC-specific cell death at 36 hrs after co-culture with AP-CD8+ T cells, R10 at 10 µM: 68.2%
